For assay [1], the target named is intrinsic renin contained in the renatured human plasma (Homo sapiens, UniProt P00797). Description: Renin inhibition in vitro (angiotensin I production in renatured human plasma, RIA). The following applies: read-out: IC50 (concentration which inhibits renin activity by 50%), 60 minutes incubation. As to the method:
Commercially available lyophilized human plasma (Ortho, Bi-Level Plasma Renin Control) was renatured by dissolving in water. Angiotensinogen was allowed to react with intrinsic renin contained in the renatured plasma to generate angiotensin I (AI), which was quantitatively measured with radioimmunoassay (RIA). Thus, potency of the plasma renin was determined on the basis of the AI production. For this purpose, Renin RIA kit (RENIN' RIABEAD®) manufacture by Dinabott was used. All of the reagents necessary for the measurement of the AI production were available from the attachment of the kit, and the measurement was conducted according to the manufacturer's direction.
To the plasma (0.2 ml) were added all of the reagents, and the mixture was combined with either of sample solutions (0.002 ml) of various concentrations which had been prepared by dissolving a test compound in different amount of ethanol. Ethanol (0.002 ml) containing no test compound was used as a control solution. The amount of AI produced was measured after 60 minutes incubation. Renin inhibition potency of test compound was determined by comparing the amount of AI produced by a sample solution with that produced by a control solution.

Amino acid sequences for entries named in this document (tags omitted). Residues count along the entry.
UniProt P00797, 67-406 limits assumed: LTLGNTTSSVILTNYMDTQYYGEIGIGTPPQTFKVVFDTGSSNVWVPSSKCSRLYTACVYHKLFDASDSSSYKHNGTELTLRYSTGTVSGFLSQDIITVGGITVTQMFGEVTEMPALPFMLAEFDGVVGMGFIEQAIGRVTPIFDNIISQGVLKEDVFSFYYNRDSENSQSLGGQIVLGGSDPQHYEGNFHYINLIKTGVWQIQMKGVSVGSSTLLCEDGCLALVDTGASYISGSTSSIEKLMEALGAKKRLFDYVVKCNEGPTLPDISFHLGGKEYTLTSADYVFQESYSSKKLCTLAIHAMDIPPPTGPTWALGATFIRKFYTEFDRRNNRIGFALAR
UniProt Q6DLS0, 67-406 limits assumed: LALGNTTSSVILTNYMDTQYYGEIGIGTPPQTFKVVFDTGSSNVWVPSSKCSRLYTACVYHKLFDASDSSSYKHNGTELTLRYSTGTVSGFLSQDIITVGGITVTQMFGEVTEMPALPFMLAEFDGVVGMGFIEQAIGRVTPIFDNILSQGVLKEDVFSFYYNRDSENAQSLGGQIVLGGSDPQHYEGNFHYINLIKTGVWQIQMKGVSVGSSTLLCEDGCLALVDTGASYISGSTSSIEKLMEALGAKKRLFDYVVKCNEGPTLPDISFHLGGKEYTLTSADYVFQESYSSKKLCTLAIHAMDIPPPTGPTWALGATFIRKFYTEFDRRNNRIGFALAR

For a further assay, the target named is Plasma renin activity (Macaca fascicularis, UniProt Q6DLS0). Description: Renin inhibition in vivo (plasma renin activity after oral administration to hyperrenin monkeys). The settings on record: 15 mg/kg orally, low sodium diet + furosemide. As to the method: Crab-eating monkeys (Cynomolgus monkeys) (2.8-5.0 kg) were fed on low sodium diet (Na 7.15 mg/100 g feed) for six days, during which the monkeys intramuscularly received furosemide (2 mg/kg body weight) every other day from the second day of the experiment, in order to make the monkeys hyperrenin condition.
After seven days from the low sodium feeding, the monkeys were restrained on a monkey chair. Compounds to be tested are dissolved in 0.1 M citric acid/physiological saline or suspended in water with addition of β-cyclodextrin, and orally administered to the monkeys using a stomach probe (15 mg/kg body weight). […] For the blood collection, an injection syringe containing 30 μl of 6% aqueous EDTA·2Na solution was used. The collected blood was transferred into a test tube and centrifuged (3000 rpm, 10 minutes) at 4° C., and the resultant supernatant was used to determine the renin content. Plasma renin activity (AI(ng)/ml/h value) was measured using Radioimmunoassy kit commercially available from Dinabott Co. in the same manner as in the foregoing in vitro test. Renin inhibition potencies of the compounds tested, which were expressed as a percentage of renin activity relative to the activity before the administration, are listed in Table 12.

Another assay deals with conscious monkey. Put plainly: Vasodepressor activity, direct technique, conscious monkey. Here is the method:
Vasodepressor activity of the compounds of the invention was also measured with direct technique using an conscious monkey, where a monkey was administered a compound of the invention orally or intravenously (a solution in Tween 20).

For `O=C(C[C@H](O)[C@H](CC1CCCCC1)NC(=O)[C@H](Cc1cscn1)NC(=O)[C@H](Cc1ccccc1)NS(=O)(=O)N1CCOCC1)c1ccncc1`, in assay [1], the IC50 was determined as 0.51 nM. Also, on Plasma renin activity, the “Renin inhibition potency, Max” value is 98%. Moreover, the “Renin inhibition potency, Mean” value on Plasma renin activity was found to be 86%. The “Renin inhibition potency, 4 h” value at Plasma renin activity (4 h after administration) is 95%. Also, at Plasma renin activity (6 h after administration), the “Renin inhibition potency, 6 h” value turned out to be 83%. Besides, the “Renin inhibition potency, 8 h” value on Plasma renin activity (8 h after administration) is 70%. The “Renin inhibition potency, 24 h” value on Plasma renin activity (24 h after administration) is listed as 11%. Also, the “Maximum reduced BP” value in the assay on conscious monkey (i.v., 0.3 mg/kg) is 5 -ΔmmHg; in the assay on conscious monkey (i.v., 1 mg/kg), 20 -ΔmmHg; with conscious monkey (p.o., 10 mg/kg), 5 -ΔmmHg; in the assay on conscious monkey (p.o., 30 mg/kg) it was 10 -ΔmmHg; in the assay on conscious monkey (p.o., 100 mg/kg), 35 -ΔmmHg.
